Molecular target: SSTR1 (Homo sapiens (Human), UniProt P30872)
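Further: binding assay on CHO-K1 cell membranes overexpressing SSTR1, incubated 60 min at room temperature, bound fraction collected on filters and read by scintillation counting.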

Amino acid sequences for entries named in this document (tags omitted). A change or cut given only in a name is not applied to a line headed by its entry.
UniProt P30872: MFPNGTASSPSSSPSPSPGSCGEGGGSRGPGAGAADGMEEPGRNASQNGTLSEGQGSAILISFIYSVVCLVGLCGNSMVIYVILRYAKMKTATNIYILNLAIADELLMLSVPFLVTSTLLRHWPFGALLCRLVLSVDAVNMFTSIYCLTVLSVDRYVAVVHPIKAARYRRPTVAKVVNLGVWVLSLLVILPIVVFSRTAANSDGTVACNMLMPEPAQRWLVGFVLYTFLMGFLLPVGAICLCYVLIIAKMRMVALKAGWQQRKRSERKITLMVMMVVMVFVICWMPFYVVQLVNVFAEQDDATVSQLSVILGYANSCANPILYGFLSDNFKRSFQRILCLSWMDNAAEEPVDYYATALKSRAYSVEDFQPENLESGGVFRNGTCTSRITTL

C[C@H]1CNCC[C@@H]1NC(=O)C1(Cc2cccc(Cl)c2)CC1 [Example 15, 1-(3-chlorobenzyl)-N-((3S,4S)-3-methylpiperidin-4-yl)cyclopropane-1-carboxamide]
IC50: 6.31 µM

From patent publication US20250188037A1, “N-(PYRROLIDIN-3-YL OR PIPERIDIN-4-YL)ACETAMIDE DERIVATIVES” (Takeda Pharmaceutical Company Limited, priority 2022, published 2025)
